Data from paper PMC11938014, “Development and Application of Small Molecule–Peptide Conjugates as Cathepsin K-Specific Covalent Irreversible Inhibitors in Human Osteoclast and Lung Cancer” (JACS Au, 2025).

Chains of the proteins cited; added tags and fusions are not shown. Residues count along the entry.
UniProt P07711, 114-333 limits assumed: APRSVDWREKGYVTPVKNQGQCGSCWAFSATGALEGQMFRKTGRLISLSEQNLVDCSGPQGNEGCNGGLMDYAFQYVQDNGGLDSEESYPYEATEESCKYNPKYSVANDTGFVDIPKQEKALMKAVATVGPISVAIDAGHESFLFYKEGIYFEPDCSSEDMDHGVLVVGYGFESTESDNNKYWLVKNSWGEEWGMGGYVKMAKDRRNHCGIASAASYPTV
UniProt P43235, 115-329 limits assumed: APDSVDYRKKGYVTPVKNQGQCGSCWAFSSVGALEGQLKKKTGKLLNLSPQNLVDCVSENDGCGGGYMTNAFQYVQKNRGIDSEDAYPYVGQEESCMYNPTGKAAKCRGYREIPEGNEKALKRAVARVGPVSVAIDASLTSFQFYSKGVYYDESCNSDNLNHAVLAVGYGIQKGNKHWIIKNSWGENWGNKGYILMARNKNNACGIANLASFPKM

How the values were obtained:
Assay in all cases: Recombinant cathepsin inhibition, gel-based competition with GB123 probe
Type in all cases: biochemical
[1] = target: Recombinant human cathepsin B (Homo sapiens, UniProt P07858); details: read-out: CTSB (IC50); Table S2; three independent competition gel-based experiments
[2] = target: Recombinant human cathepsin L (Homo sapiens, UniProt P07711); details: read-out: CTSL (IC50); Table S2; three independent competition gel-based experiments
[3] = target: Recombinant human cathepsin K (Homo sapiens, UniProt P43235); details: for potency and selectivity toward CTSK and other cathepsins, in words: in-gel fluorescence, GB123; for IC50: read-out: CTSK (IC50), Table S2, three independent competition gel-based experiments

IC50 [1] [µM] | IC50 [2] [µM] | potency and selectivity toward CTSK and other cathepsins, in words [3] | IC50 [3] [µM] | SMILES
> 5 | > 5 | very low potency and no selectivity | 5.4 | CC(C)C[C@H](NC(=O)OCC1c2ccccc2-c2ccccc21)C(=O)N1CCC[C@H]1C(=O)NCC(=O)OCC(=O)[C@H](CCCCNC(=O)OC(C)(C)C)NC(=O)[C@@H]1CCCN1C(=O)CNC(=O)OCc1ccccc1
4 | 3.1 | very low potency and no selectivity | > 5 | NCC(=O)N[C@@H](Cc1cnc[nH]1)C(=O)N1CCC[C@H]1C(=O)NCC(=O)COC(=O)[C@@H]1CCCN1C(=O)[C@H](CCC(N)=O)NC(=O)OCC1c2ccccc2-c2ccccc21
0.69 | 0.69 | very low potency and no selectivity | > 5 | CC(C)C[C@H](NC(=O)OCC1c2ccccc2-c2ccccc21)C(=O)N1CCC[C@H]1C(=O)OCC(=O)CNC(=O)[C@@H]1CCCN1C(=O)[C@H](Cc1cnc[nH]1)NC(=O)CN
> 5 | > 5 | – | 2 | O=C(NCC(=O)N1CCC[C@H]1C(=O)NCC(O)(CSc1c(F)c(F)cc(F)c1F)Sc1c(F)c(F)cc(F)c1F)OCc1ccccc1 (stereo partly shown)
6.6 | > 5 | very low potency and no selectivity | > 5 | NCC(=O)N[C@@H](Cc1cnc[nH]1)C(=O)N1CCC[C@H]1C(=O)NCC(=O)COC(=O)[C@@H]1CCCN1C(=O)[C@H](CC(=O)O)NC(=O)OCC1c2ccccc2-c2ccccc21
5.2 | > 5 | – | 8.3 | NCCCC[C@H](NC(=O)[C@H](Cc1ccccc1)NC(=O)OCc1ccccc1)C(O)(CSc1c(F)c(F)cc(F)c1F)Sc1c(F)c(F)cc(F)c1F (stereo partly shown)
